Amino acid sequences for entries named in this document (tags omitted). A change or cut given only in a name is not applied to a line headed by its entry.
UniProt Q9Y6L6: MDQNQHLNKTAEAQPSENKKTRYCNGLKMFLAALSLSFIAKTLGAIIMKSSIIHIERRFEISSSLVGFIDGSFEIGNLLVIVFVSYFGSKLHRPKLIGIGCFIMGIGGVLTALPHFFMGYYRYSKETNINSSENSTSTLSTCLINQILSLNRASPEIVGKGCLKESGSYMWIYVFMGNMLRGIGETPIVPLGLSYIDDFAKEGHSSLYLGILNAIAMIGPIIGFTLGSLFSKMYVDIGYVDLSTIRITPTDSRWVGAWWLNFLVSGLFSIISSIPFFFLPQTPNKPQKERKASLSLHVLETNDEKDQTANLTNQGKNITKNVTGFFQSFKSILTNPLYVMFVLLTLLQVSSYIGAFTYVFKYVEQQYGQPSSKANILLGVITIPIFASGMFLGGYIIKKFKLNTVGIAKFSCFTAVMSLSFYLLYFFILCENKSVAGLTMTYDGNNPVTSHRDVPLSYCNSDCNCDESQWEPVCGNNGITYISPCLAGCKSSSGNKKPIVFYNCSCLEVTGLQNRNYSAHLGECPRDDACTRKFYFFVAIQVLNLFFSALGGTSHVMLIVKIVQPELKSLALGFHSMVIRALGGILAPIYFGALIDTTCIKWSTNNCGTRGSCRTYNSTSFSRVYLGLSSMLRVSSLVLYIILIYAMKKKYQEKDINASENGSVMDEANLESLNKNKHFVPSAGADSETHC
UniProt O94956: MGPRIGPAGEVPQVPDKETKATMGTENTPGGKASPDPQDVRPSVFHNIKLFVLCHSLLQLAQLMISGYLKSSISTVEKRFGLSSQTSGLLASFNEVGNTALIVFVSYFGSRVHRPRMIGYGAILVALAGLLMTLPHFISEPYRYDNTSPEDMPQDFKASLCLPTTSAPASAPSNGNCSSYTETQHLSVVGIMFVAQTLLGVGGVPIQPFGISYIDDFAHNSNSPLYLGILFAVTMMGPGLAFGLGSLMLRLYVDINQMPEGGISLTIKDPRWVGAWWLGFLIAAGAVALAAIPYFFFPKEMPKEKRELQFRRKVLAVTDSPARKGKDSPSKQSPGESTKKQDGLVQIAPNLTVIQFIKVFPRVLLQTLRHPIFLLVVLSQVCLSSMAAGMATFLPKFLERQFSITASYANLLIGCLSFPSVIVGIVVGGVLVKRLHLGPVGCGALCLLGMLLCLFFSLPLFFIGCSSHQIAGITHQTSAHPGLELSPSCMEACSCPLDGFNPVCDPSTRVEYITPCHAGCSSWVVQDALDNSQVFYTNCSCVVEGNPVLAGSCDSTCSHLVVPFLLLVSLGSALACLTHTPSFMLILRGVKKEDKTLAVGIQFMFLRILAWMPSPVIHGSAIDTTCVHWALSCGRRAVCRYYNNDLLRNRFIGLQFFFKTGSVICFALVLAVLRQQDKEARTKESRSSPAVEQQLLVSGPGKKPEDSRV
UniProt Q9NPD5: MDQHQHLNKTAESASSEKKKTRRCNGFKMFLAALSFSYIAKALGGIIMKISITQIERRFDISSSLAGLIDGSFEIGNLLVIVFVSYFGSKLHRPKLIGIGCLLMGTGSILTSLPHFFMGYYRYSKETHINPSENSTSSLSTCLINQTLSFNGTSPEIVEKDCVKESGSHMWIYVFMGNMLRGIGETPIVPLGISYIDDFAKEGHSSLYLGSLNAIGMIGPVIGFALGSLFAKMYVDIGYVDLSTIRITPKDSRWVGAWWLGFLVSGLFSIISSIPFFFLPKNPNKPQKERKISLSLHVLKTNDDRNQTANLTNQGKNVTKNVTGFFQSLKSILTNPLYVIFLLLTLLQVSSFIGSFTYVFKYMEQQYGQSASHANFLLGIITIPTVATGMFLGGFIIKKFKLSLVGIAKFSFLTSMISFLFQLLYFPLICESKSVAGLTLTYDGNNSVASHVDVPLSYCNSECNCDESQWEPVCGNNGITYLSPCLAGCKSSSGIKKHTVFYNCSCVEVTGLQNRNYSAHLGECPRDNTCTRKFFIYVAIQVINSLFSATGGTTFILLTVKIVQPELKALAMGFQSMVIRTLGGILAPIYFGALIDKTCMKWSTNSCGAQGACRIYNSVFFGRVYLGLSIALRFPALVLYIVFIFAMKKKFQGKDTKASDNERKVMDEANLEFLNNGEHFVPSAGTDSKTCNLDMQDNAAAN

According to publication PMC2919811 (Analytical biochemistry, 2010):

Columns and labels:
OATP1B1 = OATP1B1 (Homo sapiens, UniProt Q9Y6L6)
OATP2B1 = OATP2B1 (Homo sapiens, UniProt O94956); test: Substrate uptake in CHO cells stably expressing OATP2B1; type: cell-based
OATP1B3 = OATP1B3 (Homo sapiens, UniProt Q9NPD5)

Substance: dehydroepiandrosterone sulfate
- cellular accumulation relative to control, CHOOATP1B1 (OATP1B1): 13.2 fold
- cellular accumulation relative to control, CHOOATP2B1 (OATP2B1): 1.3 fold
- cellular accumulation relative to control, CHOOATP1B3 (OATP1B3): 2.4 fold
